Experimental findings from US20230398228A1, “ERIBULIN-BASED ANTIBODY-DRUG CONJUGATES AND METHODS OF USE” (EISAI R&D MANAGEMENT CO., LTD., priority 2016, published 2023) are described below.

Broadly, the IC50 is the point on the concentration scale where inhibition reaches its midpoint. A high value points to weaker potency.

Common to all, as to format: cell-based, human
One data set concerns NCI-N87 cells. Briefly: Crystal Violet cytotoxicity assay (Example 4), NCI-N87. How it is done:
(§1) Test reagents were serial diluted 1:3 in 2 mL deep-well dilution plates, starting at 200 nM (10 dilutions total). […] Medium was then discarded. […] Plates were read at 570 nm. Data was analyzed using GraphPad Prism 6.
(§2) NCI-H2110 cells are of human non-small cell lung carcinoma origin and express moderate levels of both folate receptor alpha and mesothelin (i.e., MORAb-003- and MORAb-009-reactive).

The test system of the next data set is BT-474 cells. Briefly: Crystal Violet cytotoxicity assay (Example 4), BT-474. The method, then:
as §1, §2

In another data set the test system is HL-60 cells. Nature of the data set: Bystander killing assay, Nuclight Red HL-60. To be noted: HL-60:IGROV1 ratio 2:1.

For “trastuzumab: humanized anti-human her2/neu antibody [reference compound]”, the concentration for half-maximal inhibition (IC50) in the data set on NCI-N87 cells came out at 0.78 nM; in the data set with BT-474 cells, 0.641 nM. With “MORAb-003-maleimido-PEG2-Val-Cit-pAB-eribulin [MORAb-202]”, in the data set on HL-60 cells, the “increase in killing of HL-60 cells in co-culture compared with HL-60 cells alone” value was 2 log.
